Measured values published in US20260256936A1, “BIOACTIVE CONJUGATES, PREPARATION METHOD AND USE THEREOF” (priority 2023, published 2026).

B1: 3-3 (conjugate)
heavy: EVQLVQSGAEVKKPGASVKVSCKASGYSFTDYYMHWVRQAPGQGLEWIGRINPYAGAAFYSQNFKDRVTLTVDTSTSTAYLELSSLRSEDTAVYYCAIERGADLEGYAMDYWGQGTLVTVSSASTKGPSVFPLAPSSKSTSGGTAALGCLVKDYFPEPVTVSWNSGALTSGVHTFPAVLQSSGLYSLSSVVTVPSSSLGTQTYICNVNHKPSNTKVDKKV[human IgG1 Fc not printed]
light: DIQMTQSPSSLSASVGDRVTITCRASQSVSTSSYNYMHWYQQKPGKPPKLLIKYASNLESGVPSRFSGSGSGTDFTLTISSLQPEDFATYYCQHSWEIPLTFGQGTKVEIKRTVAAPSVFIFPPSDEQLKSGTASVVCLLNNFYPREAKVQWKVDNALQSGNSQESVTEQDSKDSTYSLSSTLTLSKADYEKHKVYACEVTHQGLSSPVTKSFNRGEC
B2: 3-5 (conjugate)
heavy: B1 heavy
light: B1 light
B3: 3-6 (conjugate)
heavy: B1 heavy
light: B1 light
B4: 3-1 (conjugate)
heavy: B1 heavy
light: B1 light
B5: 3-7 (conjugate)
heavy: B1 heavy
light: B1 light
B6: 3-A (conjugate)
heavy: B1 heavy
light: B1 light
B7: 3-2 (conjugate)
heavy: B1 heavy
light: B1 light

Tests used:
[1] = for ADC AUClast / Tab AUClast: BALB/c nude mice, intravenous; for payload exposure compared with ADC3-A: mouse PK, in words
Method: Female BALB/c nude mice (n==3 per group) were treated with freshly prepared ADCs (5 or 10 mg/kg) through intravenous administration. At the designated time points after dosing, mice were anesthetized by isoflurane. […] Blood samples were placed at room temperature for about 30 minutes and processed by centrifugation (4° C., 3000×g, 7 min) to separate plasma. Serum samples were transferred into new 1.5 mL tubes and kept in a −80° C. freezer prior to analysis.
Serum payload concentrations. To determine serum payload concentrations, an aliquot of 15 μL sample was added with 150 μL IS (Verapamil, 10 ng/mL) in ACN/MeOH (1:1). The mixture was vortexed for 1 min and centrifuged at 4000 rpm for 10 min at 4° C. An aliquot of 80 μL supernatant was diluted with 80 μL, water, and the mixed sample was injected into LC-MS/MS.
LC-MS/MS method to determine payload bioanalysis. LC-MS/MS analysis was carried out under the following measurement conditions: • Instrument: LC-MS/MS (Triple Quad 6500 plus) • Monitor: MRM • Column: Advanced Materials Technology, HALO AQ-C18 2.7 μm 90 Å, 50*2.1 mm • Column temperature: 40° C. • canile phase A: H2O-0.1% FA • Mobile phase B: ACN-0.1% FA • Gradient program for MMAE: 15% B-15% B (0 min-0.4 min), 15% B-30% B (0.4 min-0.8 min), 30% B-30% B (0.8 min-1.8 min), 30% B-90% B (1.8 min-1.9 min), 90% B-90% B (1.9 min-2.4 min), 90% B-15% B (2.4 min-2.5 min), 15% B-15% B (2.5 min-3.0 min) • Injected sample amount: 10 μL (MMAE)
Plasma ADC and total Ab (Tab) concentrations. Plasma ADC and Tab concentrations were determined using an ELISA assay in which the capture reagent was CLL1 or PTK7 (as applicable) ECD (extracellular domain). The detection reagent was anti-payload Ab for ADC concentration and anti-human IgG polyclonal Ab for Tab concentration.
For ADC concentration, microplates were coated with CLL1 or PTK7, as applicable, ECD at 1 μg/mL, 100 μL per well and incubated overnight at 4° C. The microplates were washed 3 times with 0.05% PBST, then 200 μL 2% BSA solution was added per well. The plates were incubated at 37° C. for 1 h followed by washing 3 times with 0.05% PBST. Then 100 μL (of ADC samples or for standard curves) were added to each well. Plates were incubated at 37° C. for 1 h followed by washing 3 times with 0.05% PBST. 100 μL of 1 μg/ml biotin anti-MMAE antibody was added per well. Plates were again incubated at 37° C. for 1 h and then washed 3 times with 0.05% PBST. Then 100 μl of 1:10000 SA-HRP was added per well, incubated at 37° C. for 0.5h, followed by washing 3 times with 0.05% PBST. Lastly, 100 μL TMB was added per well and plates were incubated for 15 mins at room temperature before the addition of 100 μL stop solution per well. Plates were read at OD 450 on an ELISA microplate reader.
For Tab concentration of anti-CLL1 antibodies, the foregoing ADC method was used except for the following changes: 100 μL of anti human lgG Fc HRP (1:10000) was added per well.

[2] = for DAR changes compared with ADC3-A: mouse PK samples, in words; for DAR: mouse
Method: ADC DAR changes in mouse serum PK samples.
Human CLL1 or PTK7, as applicable, ECD was biotinylated and immobilized onto Dynabeads M-280 Streptavidin. ADCs were captured from the plasma samples by incubation with an ECD-bead system for 2 hours at 37° C. The captured ADCs were then washed with HBS-EP buffer (10 mM Hepes [pH 7.4], 150 mM NaCl, 3.4 mM ethylenediaminetetraacetic acid [EDTA], 0.005% Surfactant P20) and digested using IdeS enzyme at 37° C. for 1 h. After extensive washing of the beads with HBS-EP, water, and 10% acetonitrile, the ADC analytes were eluted using 30% acetonitrile with 1% formic acid. The samples were then reduced with 100 mM TCEP for 45 min. Liquid chromatography-tandem mass spectrometry (LC-MS/MS) methods were used for the ADC DAR analysis.

[3] = ADC hydrophobicity evaluation by HIC chromatography (DAR8 peak retention time); type: physicochemical; details: HIC retention time of DAR8 peak; later RT = more hydrophobic
Method: HIC method: HPLC analysis was carried out under the following measurement conditions: • HPLC system: Waters ACQUITY ARC HPLC System • Detector: measurement wavelength: 280 nm • Column: Tosoh Bioscience 4.6 μm ID×3.5 cm, 2.5 μm butyl-nonporous resin column • Column temperature: 25° C. • Mobile phase A: 1.5 M ammonium sulfate, 50 mM phosphate buffer, pH 7.0 • Mobile phase B: 50 mM phosphate buffer, 25% (V/V) Isopropanol, pH 7.0 • Gradient program: 0% B-0% B (0 min-2 min), 0% B-100% B (2 min-15 min), 100% B-100% B (15 min-16 min), 100% B-0% B (16 min-17 min), 0% B-0% B (17 min-20 min) • Injected sample amount: 20 g
ADC hydrophobicity evaluation: An ADC with a higher hydrophobic property would appear with a later retention time (“RT”) from HIC (hydrophobicity interaction column) chromatography. Results are presented in Tables 2A-2D using the DAR8 peak as a reference.

| Molecule | ADC AUClast ([1]; 5 mg/kg) | Tab AUClast ([1]; 5 mg/kg) | payload exposure compared with ADC3-A [1] | DAR changes compared with ADC3-A [2] | DAR ([2]; 5 mg/kg, 2 h post-dosing) | DAR ([2]; 5 mg/kg, […] post-dosing) | DAR8 RT [3] | ADC AUClast ([1]; 10 mg/kg) | Tab AUClast ([1]; 10 mg/kg) | DAR ([2]; 10 mg/kg, 2 h post-dosing) | DAR ([2]; 10 mg/kg, […] post-dosing) | DAR ([2]; 5 mg/kg, 0.5 h post-dosing) | DAR ([2]; 5 mg/kg, 72 h post-dosing) |
| --- | --- | --- | --- | --- | --- | --- | --- | --- | --- | --- | --- | --- | --- |
| B1 | 4229 µg·h/mL | 4923 µg·h/mL | lower payload exposure | lower DAR changes | 3.48 | 2.82 |  |  |  |  |  |  |  |
| B2 | 8380 µg·h/mL | 8051 µg·h/mL | lower payload exposure | lower DAR changes | 2.94 | 2.34 |  |  |  |  |  |  |  |
| B3 | 6969 µg·h/mL | 7965 µg·h/mL | lower payload exposure | lower DAR changes | 2.96 | 2.24 | 12.466 min |  |  |  |  |  |  |
| B4 |  |  |  |  |  |  | 14.491 min |  |  |  |  |  |  |
| B5 |  |  | lower payload exposure | lower DAR changes |  |  | 11.961 min | 13175 µg·h/mL | 12900 µg·h/mL | 3.60 | 3.36 |  |  |
| B6 | 4353 µg·h/mL | 6448 µg·h/mL |  |  |  | 1.22 | 14.466 min |  |  |  |  | 2.76 | 1.96 |
| B7 |  |  |  |  |  |  | 14.167 min |  |  |  |  |  |  |

Like-named read-outs stand apart in the source and are kept apart here.
